This passage reports Ki results from BindingDB's records for PubMed 1706716 (Duke University, 1991).

The target of this test is T1, Alpha-1A adrenergic receptor (Bos taurus, UniProt P18130).
T1 sequence (P18130 whole entry): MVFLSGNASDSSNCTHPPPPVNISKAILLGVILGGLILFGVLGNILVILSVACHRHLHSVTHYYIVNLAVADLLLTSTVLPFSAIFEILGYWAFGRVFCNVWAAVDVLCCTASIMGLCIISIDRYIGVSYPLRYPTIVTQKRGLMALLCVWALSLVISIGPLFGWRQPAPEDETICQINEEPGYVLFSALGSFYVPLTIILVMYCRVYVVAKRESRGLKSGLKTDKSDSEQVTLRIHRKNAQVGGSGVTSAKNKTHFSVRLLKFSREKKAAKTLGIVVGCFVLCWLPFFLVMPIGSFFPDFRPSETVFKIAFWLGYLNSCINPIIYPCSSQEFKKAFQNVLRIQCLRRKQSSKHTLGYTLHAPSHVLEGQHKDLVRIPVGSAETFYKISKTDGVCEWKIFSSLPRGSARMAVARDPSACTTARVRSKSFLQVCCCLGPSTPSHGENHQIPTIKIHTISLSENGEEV

Structures are written as SMILES.

Take `CNCC(O)c1ccc(O)c(O)c1` (stereo unspecified) [EPINEPHRINE]: the Ki (as a rule, the dissociation constant of the complex between target and ligand, obtained from inhibition or displacement) came out at 6.25 µM.
